According to PubChem BioAssay AID813 (Sanford-Burnham Center for Chemical Genomics, 2007):
Only a part is listed here, and it is no random draw. Active and inactive are the calls of the source.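 Rule for the calls: active = activation factor of at least 2 at 20 µM, relative to controls; inactive = the rest.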

The chains behind the UniProt entries cited, without tags or fusion partners.
UniProt P05186, whole entry: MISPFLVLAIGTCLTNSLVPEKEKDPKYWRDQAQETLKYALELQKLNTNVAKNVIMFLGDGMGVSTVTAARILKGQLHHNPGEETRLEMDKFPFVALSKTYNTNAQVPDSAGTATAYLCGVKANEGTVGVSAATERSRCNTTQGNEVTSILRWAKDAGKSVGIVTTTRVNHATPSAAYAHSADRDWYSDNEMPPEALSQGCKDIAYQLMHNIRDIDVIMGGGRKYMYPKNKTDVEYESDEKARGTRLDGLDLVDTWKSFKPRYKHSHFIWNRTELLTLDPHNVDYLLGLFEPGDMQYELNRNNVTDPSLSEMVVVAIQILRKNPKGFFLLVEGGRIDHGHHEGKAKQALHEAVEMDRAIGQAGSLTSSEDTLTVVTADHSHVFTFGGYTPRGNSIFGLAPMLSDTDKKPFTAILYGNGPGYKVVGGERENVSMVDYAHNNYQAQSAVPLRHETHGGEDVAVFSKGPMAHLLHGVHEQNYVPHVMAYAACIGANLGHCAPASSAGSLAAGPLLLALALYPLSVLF

target: Alkaline phosphatase, tissue-nonspecific isozyme (Homo sapiens) (UniProt P05186); assay: stimulation of alkaline phosphatase TNAP activity – biochemical, luminescent, intermediate phosphate acceptor level, primary screen (AID 813); conditions: purified TNAP, CDP-star luminescence, 100 mM DEA, 30 min, at 20 µM; hits give high values, scale: 0 levamisole-inhibited, 1 vehicle-only enzyme

**Q.** With `COc1ccccc1OP(C)(=O)Nc1ccc(C)cc1` (stereo unspecified) as the compound, how does the activation factor read?
**A.** Its activation factor is “inactive”.

**Q.** `Cc1ccc(NP(C)(=O)Oc2ccccc2)c(C)c1` (stereo unspecified) was tested. Which activation factor did it give?
**A.** Its activation factor is “inactive”.

**Q.** `CCOP(C)(=S)SCC(=O)NC(C)C(=O)O` (stereo unspecified) was tested. Which activation factor did it give?
**A.** The activation factor was “inactive”.

**Q.** `COP1(=S)c2c(C)nn(CCC#N)c2N=C(c2ccc(F)cc2)N1C` (stereo unspecified) was tested. Which activation factor did it give?
**A.** The activation factor was “inactive”.

**Q.** How did the activation factor turn out when `CP(=O)(NC(=O)Nc1ccccc1)Oc1ccccc1` (stereo unspecified) was run?
**A.** Its activation factor is “inactive”.

**Q.** For `O=C(COc1ccccc1)OC1CN2CCC1CC2` (stereo unspecified), which activation factor is on record?
**A.** The activation factor was “inactive”.

**Q.** With `CP(=S)(Nn1cnnc1)Oc1ccccc1` (stereo unspecified) as the compound, how does the activation factor read?
**A.** The activation factor was inactive: 0.8.

**Q.** `Cc1ccc(OCC(=O)OC2CN3CCC2CC3)cc1` (stereo unspecified) was tested. Which activation factor did it give?
**A.** The activation factor was “inactive”.

**Q.** Which activation factor does the source give for `O=P1(Nc2ccc(Br)cn2)COc2ccccc2OC1` here?
**A.** Its activation factor is “inactive”.

**Q.** `Cc1nn(-c2ccccc2)c2c1P(=O)(N1CCOCC1)N(C)C(c1ccccc1)=N2` (stereo unspecified) was tested. Which activation factor did it give?
**A.** The activation factor was “inactive”.

**Q.** `Cc1nc2ccc3ccccc3c2s1.O=[N+]([O-])c1cc([N+](=O)[O-])c(O)c([N+](=O)[O-])c1` was tested. Which activation factor did it give?
**A.** The activation factor was “inactive”.

**Q.** How did the activation factor turn out when `O=P1(Nc2ccccn2)COc2ccccc2OC1` was run?
**A.** Its activation factor is “inactive”.

**Q.** `Cc1ccc(C)c(NP(C)(=O)Oc2ccccc2)c1` (stereo unspecified) was tested. Which activation factor did it give?
**A.** The activation factor was “inactive”.

**Q.** Which activation factor does the source give for `Cc1cccc(OCC(=O)OC2CN3CCC2CC3)c1` (stereo unspecified) here?
**A.** The activation factor was “inactive”.

**Q.** `CCOP1(=S)c2c(C)nn(CCC#N)c2N=C(c2ccccc2F)N1C` (stereo unspecified) was tested. Which activation factor did it give?
**A.** The activation factor was “inactive”.

**Q.** Which activation factor does the source give for `O=P(Nc1nccs1)(c1ccccc1)c1nc2ccccc2s1` (stereo unspecified) here?
**A.** The activation factor was “inactive”.

**Q.** `O=P1(Nc2nc3ccc(Cl)cc3s2)COc2ccccc2O1` (stereo unspecified) was tested. Which activation factor did it give?
**A.** The activation factor was “inactive”.

**Q.** With `CP(=O)(Nc1ccccc1F)Oc1ccccc1` (stereo unspecified) as the compound, how does the activation factor read?
**A.** The activation factor was inactive: 1.

**Q.** Which activation factor does the source give for `CP(=O)(Nc1ccc2c(c1)OCCO2)Oc1ccccc1` (stereo unspecified) here?
**A.** Its activation factor is inactive: 0.8.

**Q.** For `Cc1ccccc1NP(C)(=O)Nc1ccccc1C`, which activation factor is on record?
**A.** Its activation factor is inactive: 1.

**Q.** With `CCOP(C)(=S)SCC(=O)NC(C)(CC)C(=O)O` (stereo unspecified) as the compound, how does the activation factor read?
**A.** Its activation factor is “inactive”.

**Q.** `c1nnnn1CCn1cnnn1` was tested. Which activation factor did it give?
**A.** Its activation factor is “inactive”.

**Q.** Which activation factor does the source give for `O=C(OC1CN2CCC1CC2)c1cccc(Cl)c1` (stereo unspecified) here?
**A.** Its activation factor is “inactive”.

**Q.** With `CN(C)CCOC(=O)C(O)(c1ccccc1)C1CCCCC1` (stereo unspecified) as the compound, how does the activation factor read?
**A.** The activation factor was “inactive”.

**Q.** Which activation factor does the source give for `CCN(CC)CC(O)COC(=O)C(O)(c1ccccc1)C1CCCCC1` (stereo unspecified) here?
**A.** Its activation factor is “inactive”.

**Q.** For `COc1ccccc1OP(C)(=O)Nc1c(C)n(C)n(-c2ccccc2)c1=O` (stereo unspecified), which activation factor is on record?
**A.** Its activation factor is inactive: 1.

**Q.** Which activation factor does the source give for `CP(=O)(Oc1ccccc1)N1CCOC1=O` (stereo unspecified) here?
**A.** The activation factor was “inactive”.

**Q.** `CCc1nc2c(n1)c1c(non1O)c1c2no[n+]1[O-]` was tested. Which activation factor did it give?
**A.** The activation factor was “inactive”.

**Q.** Which activation factor does the source give for `CP(=O)(Nc1ccccn1)Oc1ccccc1` (stereo unspecified) here?
**A.** The activation factor was inactive: 1.1.

**Q.** `Cc1nc2ccc3ccccc3c2o1.O=[N+]([O-])c1cc([N+](=O)[O-])c(O)c([N+](=O)[O-])c1` was tested. Which activation factor did it give?
**A.** Its activation factor is “inactive”.

**Q.** How did the activation factor turn out when `COc1ccccc1OP(C)(=O)Nc1ccc(C)c(C)c1` (stereo unspecified) was run?
**A.** The activation factor was “inactive”.
